Values of other authors, collected in patent US20070173463A1, “Method and composition for treating otitis media” (priority 2006, published 2007).

Settings: topical use in the ear; cited from earlier work

neomycin
toxicity for the inner ear (ototoxicity): scattered reports of ototoxicity
